The chains behind the UniProt entries cited, without tags or fusion partners. Where a name states a change or a piece, a line headed by the entry shows the natural chain unless it says otherwise.
UniProt Q13464: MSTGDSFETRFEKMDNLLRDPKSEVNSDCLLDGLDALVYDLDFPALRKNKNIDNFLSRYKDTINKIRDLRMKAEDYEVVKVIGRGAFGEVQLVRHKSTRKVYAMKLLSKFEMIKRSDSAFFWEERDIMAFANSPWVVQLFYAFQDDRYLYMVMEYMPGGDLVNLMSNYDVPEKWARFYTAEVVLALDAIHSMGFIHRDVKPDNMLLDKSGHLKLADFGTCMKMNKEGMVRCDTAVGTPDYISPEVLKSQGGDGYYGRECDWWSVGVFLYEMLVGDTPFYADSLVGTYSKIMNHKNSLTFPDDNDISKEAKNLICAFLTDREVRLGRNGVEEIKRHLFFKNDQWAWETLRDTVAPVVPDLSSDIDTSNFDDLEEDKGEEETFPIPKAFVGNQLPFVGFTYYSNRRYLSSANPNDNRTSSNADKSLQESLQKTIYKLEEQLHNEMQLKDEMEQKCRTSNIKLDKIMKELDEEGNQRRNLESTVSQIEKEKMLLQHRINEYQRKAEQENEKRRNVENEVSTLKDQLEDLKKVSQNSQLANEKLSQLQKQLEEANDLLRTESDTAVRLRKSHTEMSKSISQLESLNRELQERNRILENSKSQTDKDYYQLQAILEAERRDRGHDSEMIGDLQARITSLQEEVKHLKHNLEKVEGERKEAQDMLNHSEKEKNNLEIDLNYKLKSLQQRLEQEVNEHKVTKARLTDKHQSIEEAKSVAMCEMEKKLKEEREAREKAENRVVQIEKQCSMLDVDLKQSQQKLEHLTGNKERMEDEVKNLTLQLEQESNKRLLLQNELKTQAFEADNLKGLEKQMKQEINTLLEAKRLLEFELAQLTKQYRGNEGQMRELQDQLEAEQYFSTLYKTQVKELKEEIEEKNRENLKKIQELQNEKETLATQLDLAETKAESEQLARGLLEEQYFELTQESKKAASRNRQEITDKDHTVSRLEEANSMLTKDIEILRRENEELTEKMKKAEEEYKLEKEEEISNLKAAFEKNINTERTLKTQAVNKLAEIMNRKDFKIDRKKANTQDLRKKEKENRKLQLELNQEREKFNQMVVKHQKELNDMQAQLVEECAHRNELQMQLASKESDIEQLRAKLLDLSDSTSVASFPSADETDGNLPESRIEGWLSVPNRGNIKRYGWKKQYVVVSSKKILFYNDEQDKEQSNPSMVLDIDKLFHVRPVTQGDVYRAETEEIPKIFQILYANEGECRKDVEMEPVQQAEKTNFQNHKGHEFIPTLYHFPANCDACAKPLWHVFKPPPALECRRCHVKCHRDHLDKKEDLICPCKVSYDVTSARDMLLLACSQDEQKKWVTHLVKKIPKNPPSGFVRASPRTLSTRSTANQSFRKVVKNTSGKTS
UniProt O75116: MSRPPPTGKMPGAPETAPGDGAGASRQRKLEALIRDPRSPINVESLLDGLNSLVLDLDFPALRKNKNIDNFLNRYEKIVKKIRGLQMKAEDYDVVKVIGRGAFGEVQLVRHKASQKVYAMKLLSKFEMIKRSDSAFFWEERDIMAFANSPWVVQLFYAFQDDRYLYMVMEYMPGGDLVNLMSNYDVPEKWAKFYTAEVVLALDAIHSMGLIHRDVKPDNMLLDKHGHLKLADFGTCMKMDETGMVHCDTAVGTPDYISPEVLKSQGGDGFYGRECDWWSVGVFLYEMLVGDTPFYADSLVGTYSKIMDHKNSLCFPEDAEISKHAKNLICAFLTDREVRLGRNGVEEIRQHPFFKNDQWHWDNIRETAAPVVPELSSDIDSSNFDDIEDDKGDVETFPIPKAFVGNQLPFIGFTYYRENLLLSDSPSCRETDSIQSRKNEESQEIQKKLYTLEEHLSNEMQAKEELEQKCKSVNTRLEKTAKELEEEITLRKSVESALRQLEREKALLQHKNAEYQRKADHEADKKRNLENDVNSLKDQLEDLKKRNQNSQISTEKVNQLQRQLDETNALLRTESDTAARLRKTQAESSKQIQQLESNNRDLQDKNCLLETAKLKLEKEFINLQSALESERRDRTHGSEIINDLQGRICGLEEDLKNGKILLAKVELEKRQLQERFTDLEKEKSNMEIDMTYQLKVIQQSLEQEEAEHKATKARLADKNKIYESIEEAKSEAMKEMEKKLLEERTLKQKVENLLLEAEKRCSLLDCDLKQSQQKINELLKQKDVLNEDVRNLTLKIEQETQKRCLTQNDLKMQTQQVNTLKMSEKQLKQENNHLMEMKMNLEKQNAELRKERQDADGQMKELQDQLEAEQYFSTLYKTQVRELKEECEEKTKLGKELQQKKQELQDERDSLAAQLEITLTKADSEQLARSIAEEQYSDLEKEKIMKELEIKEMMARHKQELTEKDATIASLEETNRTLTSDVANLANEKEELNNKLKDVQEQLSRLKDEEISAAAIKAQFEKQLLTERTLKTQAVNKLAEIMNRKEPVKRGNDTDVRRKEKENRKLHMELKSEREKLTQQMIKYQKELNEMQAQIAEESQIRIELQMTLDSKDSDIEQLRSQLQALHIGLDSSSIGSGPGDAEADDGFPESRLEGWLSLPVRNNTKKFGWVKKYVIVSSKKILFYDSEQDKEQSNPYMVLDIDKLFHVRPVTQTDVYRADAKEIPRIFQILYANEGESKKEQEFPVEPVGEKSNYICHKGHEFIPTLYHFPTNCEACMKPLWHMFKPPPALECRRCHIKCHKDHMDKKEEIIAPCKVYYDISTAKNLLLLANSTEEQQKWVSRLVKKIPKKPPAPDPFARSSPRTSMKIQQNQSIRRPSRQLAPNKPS

According to patent publication US9409868B2, “Inhibitors of rho associated protein kinases (ROCK) and methods of use” (H. LEE MOFFITT CANCER CENTER AND RESEARCH INSTITUTE, INC., priority 2012, dated 2016):

How the values were obtained:
[1] = molecular target: ROCK1 (Homo sapiens (Human), UniProt Q13464); assay: Z-Lyte FRET kinase assay, ROCK1; assay type: biochemical
[2] = molecular target: ROCK2 (Homo sapiens (Human), UniProt O75116); assay: Z-Lyte FRET kinase assay, ROCK2; assay type: biochemical

Nc1ccc2[nH]ncc2c1 [Compound 8, 5-Aminoindazole]
LE (Ligand Efficiency), ROCK1 [1]: 0.51 | LE (Ligand Efficiency), ROCK2 [2]: 0.53
